According to PMC6099451, “Structure and Biocatalytic Scope of Coclaurine N‐Methyltransferase” (Angewandte Chemie (International Ed. in English), 2018):

Experiments:
[1] = target: CNMT (coclaurine N-methyltransferase) (Coptis japonica, UniProt Q948P7); assay: N-methylation steady-state kinetics; settings: AdoMet as methyl donor; stereochemistry of 3 not stated in main text
[2] = target: CNMT (coclaurine N-methyltransferase) (Coptis japonica, UniProt Q948P7, Y328A); assay: N-methylation steady-state kinetics; settings: AdoMet as methyl donor; stereochemistry of 3 not stated in main text

Oc1ccc(C[C@@H]2NCCc3cc(O)c(O)cc32)cc1 [compound 3, norcoclaurine]
Km [1]: 265 µM | Km [2]: 601 µM
